The record followed here is patent publication US20080138437A1, “Antitumor Agent” (priority 2004, published 2008).

A short description of this series: in vivo. To be noted: male, C57BL/6, mouse, po.
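Note: mice given a single dose and followed for 14 days, with deaths tallied, LD50 derived from the doses given and the resulting death counts.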

`CC(C)COC(=O)OCN1C(=O)CN(CCN2CC(=O)N(COC(=O)OCC(C)C)C(=O)C2)CC1=O` [Sobuzoxane] yielded a median lethal dose (LD50) of 853 mg/kg.
